Laboratory results published in patent publication US20250214965A1, “COMPOUND AS KIF18A INHIBITOR” (Hangzhou Innogate Pharma Co., Ltd., priority 2021, published 2025).

Assay: Pharmacokinetic study in rats
Details: male SD rats, oral 3 mg/kg
Description: Instruments: XEVO TQ-S LC/MS instrument was produced by Waters. All measurement data were collected and processed by Masslynx V4.1 software, and the data were calculated and processed by Microsoft Excel. The statistical moment method of WinNonLin 8.0 software was used to calculate the pharmacokinetic parameters. These mainly include kinetic parameters Tmax, T1/2, Cmax, AUC0-24h etc. Column: ACQUITY UPLC BEH C18 (2.1 mm×50 mm, 1.7 m); column temperature 40° C.; mobile phase A is water (0.1% formic acid), mobile phase B is acetonitrile, flow rate is 0.350 mL/min, gradient elution is adopted, the elution gradient is 0.50 min: 10% B; 1.50 min: 90% B; 2.50 min: 90% B; 2.51 min: 10% B; 3.50 min: stop. Injection volume: 1 μL.
Animals: 3 male SD rats with a weight range of 200-220 g were purchased and kept in the laboratory of the Experimental Animal Center for 2 days and then used. They were fasted for 12 hours predose and 4 hours after dosing. Drinking water was free during the test. After the rats were gavage, blood samples were taken according to the established time point.
Solvent: 0.4% ethanol+0.4% Tween80+99.2% (0.5% methylcellulose M450). Preparation of the solution for intragastrical administration: the compounds were accurately weighed and added to the solvent, and ultrasound was used at room temperature for 5 minutes to completely dissolve the drug, and a 0.3 mg/mL medicinal solution was prepared.
Pharmaceutical samples: Generally, multiple samples with similar structures (with a molecular weight difference of more than 2 units) are taken, accurately weighed, and administered together (cassette PK). In this way, multiple compounds can be screened at the same time and their oral absorption rates can be compared. A single administration was also used to study the pharmacokinetics of the drug sample in rats.
After intragastrical administration, blood was taken from the orbit at 0.25, 0.5, 1, 2, 4, 8, 10 and 24 hours. Then 50 μL of the plasma sample was taken and added 200 μL of acetonitrile (including internal standard control verapamil 2 ng/mL), vortexed for 3 min and centrifuged at 20000 rcf, 4° C. for 10 min. The supernatant plasma was used for LC-MS/MS analysis.
The compounds were accurately weighed to prepare different concentrations, and quantitative analysis on mass spectrometry was performed to establish a standard curve, and then the concentration of the above-mentioned compound in the plasma was tested to obtain its concentration at different time points. All measurement data were collected and processed by relevant software, and the statistical moment method was used to calculate the pharmacokinetic parameters (mainly including kinetic parameters Tmax, T1/2, Cmax, AUC0-24h etc).

AUC0-24 h: 5634.70 ng·h/mL | Cmax: 424.35 ng/mL | T1/2: 6.99 h | Tmax: 6.00 h
SMILES: Cc1cc(NC(=O)c2ccc(NS(=O)(=O)[C@H](C)CO)cc2N2CCC(=C(F)F)CC2)nc(N2CCC(F)(F)CC2)c1F
